Source: ChEMBL document CHEMBL6087474, “Discovery of an Efficacious RET PROTAC Degrader with Enhanced Antiproliferative Activity against Resistant Cancer Cells Harboring RET Solvent-Front Mutations” (J Med Chem, 2025)

Experiments:
Type in all cases: cell-based
Details in all cases: Homo sapiens
[1] = tested on: BaF3; assay: PROTAC activity at CRBN/KIF5B-RET (unknown origin) expressed in mouse BaF3 cells assessed as induction of RET degradation by measuring fold change at 30 nM measured after 1 hrs by Western blot analysis
[2] = tested on: BaF3; assay: Inhibition of RET (unknown origin) phosphorylation in mouse BaF3 cells stably expressing KIF5B-RET-G810R mutant assessed as fold change in phosphorylated RET protein level at 33.3 nM measured after 6 hrs by Western blot analysis
[3] = tested on: BaF3; assay: PROTAC activity at CRBN/KIF5B-RET (unknown origin) expressed in mouse BaF3 cells assessed as induction of RET degradation by measuring fold change at 100 nM measured after 6 hrs by Western blot analysis
[4] = tested on: BaF3; assay: PROTAC activity at CRBN/KIF5B-RET (unknown origin) expressed in mouse BaF3 cells assessed as induction of RET degradation by measuring fold change at 30 nM preincubated with compound for 2 hrs followed by compound washout and measured after 24 hrs by Western blot analysis
[5] = tested on: BaF3; assay: Inhibition of RET (unknown origin) phosphorylation in mouse BaF3 cells stably expressing wildtype KIF5B-RET fusion protein assessed as fold change in phosphorylated RET protein level at 11.1 nM measured after 6 hrs by Western blot analysis
[6] = tested on: BaF3; assay: Inhibition of RET (unknown origin) phosphorylation in mouse BaF3 cells stably expressing KIF5B-RET-V804M mutant assessed as fold change in phosphorylated RET protein level at 300 nM measured after 6 hrs by Western blot analysis
[7] = tested on: BaF3; assay: Inhibition of RET (unknown origin) phosphorylation in mouse BaF3 cells stably expressing KIF5B-RET-V804M mutant assessed as fold change in phosphorylated RET protein level at 11.1 nM measured after 6 hrs by Western blot analysis
[8] = tested on: BaF3; assay: PROTAC activity at CRBN/KIF5B-RET (unknown origin) expressed in mouse BaF3 cells assessed as induction of RET degradation by measuring fold change at 30 nM measured after 2 hrs by Western blot analysis
[9] = tested on: BaF3; assay: Inhibition of Shc (unknown origin) phosphorylation in mouse BaF3 cells stably expression KIF5B-RET G810C mutant assessed as fold change in phosphorylated Shc protein level at 33.3 nM measured after 6 hrs by Western blot analysis
[10] = tested on: BaF3; assay: PROTAC activity at CRBN/KIF5B-RET (unknown origin) expressed in mouse BaF3 cells assessed as induction of RET degradation by measuring fold change at 30 nM measured after 12 hrs by Western blot analysis
[11] = tested on: BaF3; assay: PROTAC activity at CRBN/KIF5B-RET (unknown origin) expressed in mouse BaF3 cells assessed as induction of RET degradation by measuring fold change at 30 nM measured after 4 hrs in presence of cycloheximide by Western blot analysis
[12] = tested on: BaF3; assay: Inhibition of RET (unknown origin) phosphorylation in mouse BaF3 cells stably expressing KIF5B-RET-V804M mutant assessed as fold change in phosphorylated RET protein level at 33.3 nM measured after 6 hrs by Western blot analysis
[13] = tested on: BaF3; assay: PROTAC activity at CRBN/KIF5B-RET (unknown origin) expressed in mouse BaF3 cells assessed as induction of RET degradation by measuring fold change at 30 nM measured after 12 hrs in presence of cycloheximide by Western blot analysis
[14] = tested on: BaF3; assay: Inhibition of RET (unknown origin) phosphorylation in mouse BaF3 cells stably expressing KIF5B-RET-V804M mutant assessed as fold change in phosphorylated RET protein level at 100 nM measured after 6 hrs by Western blot analysis
[15] = tested on: BaF3; assay: PROTAC activity at CRBN/KIF5B-RET (unknown origin) expressed in mouse BaF3 cells assessed as induction of RET degradation by measuring fold change at 30 nM measured after 8 hrs by Western blot analysis
[16] = tested on: BaF3; assay: PROTAC activity at CRBN/KIF5B-RET (unknown origin) expressed in mouse BaF3 cells assessed as induction of RET degradation by measuring fold change at 30 nM measured after 8 hrs in presence of cycloheximide by Western blot analysis
[17] = tested on: BaF3; assay: PROTAC activity at CRBN/KIF5B-RET (unknown origin) expressed in mouse BaF3 cells assessed as induction of RET degradation by measuring fold change at 33.3 nM measured after 6 hrs by Western blot analysis
[18] = tested on: BaF3; assay: PROTAC activity at CRBN/KIF5B-RET (unknown origin) expressed in mouse BaF3 cells assessed as induction of RET degradation by measuring fold change at 300 nM measured after 6 hrs by Western blot analysis
[19] = tested on: BaF3; assay: Inhibition of Shc (unknown origin) phosphorylation in mouse BaF3 cells stably expression KIF5B-RET G810R mutant assessed as fold change in phosphorylated Shc protein level at 100 nM measured after 6 hrs by Western blot analysis
[20] = tested on: BaF3; assay: Inhibition of Shc (unknown origin) phosphorylation in mouse BaF3 cells stably expression KIF5B-RET G810C mutant assessed as fold change in phosphorylated Shc protein level at 11.1 nM measured after 6 hrs by Western blot analysis
[21] = tested on: BaF3; assay: PROTAC activity at CRBN/KIF5B-RET (unknown origin) expressed in mouse BaF3 cells assessed as induction of RET degradation by measuring fold change at 10 nM measured after 6 hrs by Western blot analysis
[22] = tested on: BaF3; assay: PROTAC activity at CRBN/KIF5B-RET (unknown origin) expressed in mouse BaF3 cells assessed as induction of RET degradation by measuring fold change at 30 nM measured after 0.5 hrs in presence of cycloheximide by Western blot analysis
[23] = tested on: BaF3; assay: Inhibition of RET (unknown origin) phosphorylation in mouse BaF3 cells stably expressing wildtype KIF5B-RET fusion protein assessed as fold change in phosphorylated RET protein level at 100 nM measured after 6 hrs by Western blot analysis
[24] = tested on: BaF3; assay: PROTAC activity at CRBN/KIF5B-RET (unknown origin) expressed in mouse BaF3 cells assessed as induction of RET degradation by measuring fold change at 3.7 nM measured after 6 hrs by Western blot analysis
[25] = tested on: BaF3; assay: Inhibition of Shc (unknown origin) phosphorylation in mouse BaF3 cells stably expression wildtype KIF5B-RET assessed as fold change in phosphorylated Shc protein level at 33.3 nM measured after 6 hrs by Western blot analysis
[26] = tested on: BaF3; assay: PROTAC activity at CRBN/KIF5B-RET (unknown origin) expressed in mouse BaF3 cells assessed as induction of RET degradation by measuring fold change at 30 nM preincubated with compound for 2 hrs followed by compound washout and measured after 4 hrs by Western blot analysis
[27] = tested on: BaF3; assay: PROTAC activity at CRBN/KIF5B-RET (unknown origin) expressed in mouse BaF3 cells assessed as induction of RET degradation by measuring fold change at 30 nM preincubated with compound for 2 hrs followed by compound washout and measured after 12 hrs by Western blot analysis

Q: Which results are given for `COc1ccc(CN2C3CC2CN(c2ccc(-c4cc(-c5cnn(C6CCN(CCCCCC#Cc7cccc8c7CN(C7CCC(=O)NC7=O)C8=O)CC6)c5)cn5ncc(C#N)c45)cn2)C3)cn1` (configuration not stated)?
A: fold change (FC) [1]: 0.5; fold change (FC) [2]: 1; fold change (FC) [3]: 0.1; fold change (FC) [4]: 1; fold change (FC) [5]: 0.5; fold change (FC) [6]: 0.1; fold change (FC) [7]: 0.4; fold change (FC) [8]: 0.4; fold change (FC) [9]: 0.7; fold change (FC) [10]: 0.5; fold change (FC) [11]: 0.3; fold change (FC) [12]: 0.3; fold change (FC) [13]: 0.4; fold change (FC) [14]: 0.1; fold change (FC) [15]: 0.6; fold change (FC) [16]: 0.3; fold change (FC) [17]: 0.2; fold change (FC) [18]: 0.2; fold change (FC) [19]: 1; fold change (FC) [20]: 0.8; fold change (FC) [21]: 0.5; fold change (FC) [22]: 0.6; fold change (FC) [23]: 0.3; fold change (FC) [24]: 0.5; fold change (FC) [25]: 0.7; fold change (FC) [26]: 0.9; fold change (FC) [27]: 0.9
